## Yeast mating assay 2: variants of the scFv Ab-95

Reference: Engelhart et al. 2022, doi:10.1038/s41597-022-01779-4. File: FLAb, binding data.

Target peptide (SARS-CoV-2 spike, HR2 region): PDVDLGDISGINAS

Parent scFv Ab-95: VH joined to VL by three GGGGS repeats. Changes lie in the light chain CDRs alone.
VH: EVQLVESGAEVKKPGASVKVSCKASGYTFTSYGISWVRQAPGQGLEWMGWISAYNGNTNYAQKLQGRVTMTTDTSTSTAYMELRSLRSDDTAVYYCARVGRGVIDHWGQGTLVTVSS
VL: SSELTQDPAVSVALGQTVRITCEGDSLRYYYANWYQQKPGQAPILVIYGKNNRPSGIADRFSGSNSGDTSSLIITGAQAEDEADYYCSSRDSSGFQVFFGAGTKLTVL

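Phage display of a naive human antibody library on the peptide gave the parent. AAYL52 was designed without a model: most single CDR substitutions and a random sample of double and triple ones. AlphaSeq pools MATa yeast showing the antibodies with MATalpha yeast showing the peptide. Binding brings cells together so that they mate, and sequencing counts the barcode pairs among the diploids. Read counts were normalised to the haploid input and turned into Kd by a linear fit to BCL2-family pairs of known affinity, for each replicate. The assay was run in three technical replicates.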

Each variant is given by its three light chain CDRs, as the data file delimits them; those of the parent are EGDSLRYYYAN, GKNNRPS, SSRDSSGFQVF.
Values are log10 of the apparent Kd in nM; lower means stronger binding.
An entry "nd" has no value in the source: the pair was not observed among the diploids in that replicate. This suggests poor binding but is not conclusive.
Parent in this assay: reference entry 2.31, copy in this library 2.25.
Nonspecific signal, from three strains lacking the peptide, appeared in 28% of pairings of library AAYL52, centred on 3.91 (5% of these signals below 2.90); values are not corrected for it. For each scFv, signals with the empty controls are counted beside the result.

With EGDSLRYYYAN, GKINRPS, SSRDSSGFHGF the result was 4.40, 4.17, nd (controls 2 of 9).
With EGDSLRYYYAL, GKNNAPS, SKRDSSGFQVF the result was nd, nd, nd (controls 2 of 9).
With EARSLGYYYAN, GKNNRPS, SSRDSSGFQVF the result was 2.40, 2.89, 2.75 (controls 0 of 9).
With EGDSNRYYYAN, CKNNRPS, SSADSSGFQVF the result was nd, nd, 3.68 (controls 1 of 9).
With EGTDLRYYYAN, GKENRPS, SSRDSSGFQVF the result was 3.44, 3.18, 3.69 (controls 3 of 9).
With RGDPLRYYYAN, GKNNRPS, SSVDSSGFQVF the result was 2.79, 2.65, 2.35 (controls 5 of 9).
With EGDSLRYYYAN, AKINRPS, SSRDSKGFQVF the result was nd, nd, nd (controls 1 of 9).
With ECDSLRYYYAN, WKNNWPS, SSRDSSGFQVF the result was 4.03, nd, nd (controls 1 of 9).
With EGDSLRYYRAN, GKNNRPS, SSRHSSGFLVF the result was 2.98, 4.73, 3.12 (controls 5 of 9).
With EGDSLRYYYAN, DKNNRPS, SMRDSVGFQVF the result was 3.32, nd, nd (controls 2 of 9).
With EGDSLEYYYAN, GENNRPS, SSRDSSGFGVF the result was 2.26, 2.42, 2.01 (controls 5 of 9).
With EGDSLRYYYAN, GKNNMPS, NSRDSSGHQVF the result was nd, nd, nd (controls 2 of 9).
With EGDVLRYPYAN, GKNHRPS, SSRDSSGFQVF the result was 3.33, 3.10, 3.00 (controls 2 of 9).
With EIDSLRYYYAN, GKNNRPS, SSRDSYIFQVF the result was nd, 4.60, 3.19 (controls 4 of 9).
With EGDSARCYYAN, GKNNRPS, SGRDSSGFQVF the result was 3.07, nd, nd (controls 1 of 9).
With IGQSLRYYYAN, GKNNRPS, SSRDSSGFQVR the result was nd, nd, nd (controls 0 of 9).
With EGPKLRYYYAN, GKNNRPS, SSRDSSEFQVF the result was 2.47, 2.93, 2.28 (controls 2 of 9).
With EGDSLRYFYAN, GKNNRPS, SSRDSSGFQVF the result was 3.08, 3.39, 3.07 (controls 2 of 9).
With EGDSLRYYYPN, GKNNRPY, SSRDSSLFQVF the result was nd, 3.64, nd (controls 0 of 9).
With EGDVLRYYYAN, GKNNRPS, STRDSSGFQVT the result was nd, 3.29, nd (controls 0 of 9).
With EGDSLRYYYAN, GQNNRPS, KSRDSEGFQVF the result was nd, nd, nd (controls 2 of 9).
With EGDSLRYYMAN, GKNRRPS, SSRDSSGFQRF the result was 5.62, nd, nd (controls 1 of 9).
With EGDSLRYTYAP, GKNNRPS, SSRDRSGFQVF the result was 3.96, nd, nd (controls 0 of 9).
With EGNSLRYYYAN, GPNNRPS, SSRDSSGFQVF the result was 2.61, 1.94, 1.76 (controls 2 of 9).
With EGDSLRYIYAN, GKNLRNS, SSRDSSGFQVF the result was 4.40, nd, 1.68 (controls 0 of 9).
With EHDSLRYYYAN, GRNNRLS, SSRDSSGFQVF the result was 4.55, nd, 3.32 (controls 5 of 9).
With EGDSLRYYYAN, GHNNRPS, SARDSSGFQNF the result was 2.79, 2.61, 2.36 (controls 4 of 9).
With EGDSLRYYYAN, CKNNRPF, SSRDSSGFWVF the result was nd, 3.95, 3.91 (controls 1 of 9).
With EGVSLGYYYAN, GKNNRPS, SSRDSSGFQVF the result was 2.65, 3.02, nd (controls 0 of 9).
With EGDSLRYYYKH, GKNNRPS, SSRDSSGFQSF the result was 3.89, 4.36, nd (controls 5 of 9).
With DGDSLRYYYAN, GKNNRPS, SSRDSSRFAVF the result was 3.36, 3.82, 4.50 (controls 4 of 9).
With EGDFLRYYYAR, GKNNRPS, SSRPSSGFQVF the result was 4.57, nd, nd (controls 2 of 9).
With EGDSLRYYYAN, GKNNRAS, MSRDSSGFQVA the result was 2.13, 1.83, 1.52 (controls 5 of 9).
With EGLSDRYYYAN, GKNNRPS, SSRDHSGFQVF the result was 3.16, 3.20, 3.08 (controls 4 of 9).
With EGDSLRYYYAK, GMNNRES, SSRDSSGFQVF the result was nd, 4.42, nd (controls 6 of 9).

Picked from the list: the 2 lowest averages where every replicate gave a value.

CDR-L1	CDR-L2	CDR-L3	log10 Kd, replicates	control signals
EGDSLRYYYAN	GKNNRAS	MSRDSSGFQVA	2.13, 1.83, 1.52	5 of 9
EGNSLRYYYAN	GPNNRPS	SSRDSSGFQVF	2.61, 1.94, 1.76	2 of 9